According to patent US20250320290A1, “METHODS FOR TRIGGERING SAFETY KILLING MECHANISMS USING A CD47-SIRPalpha BLOCKADE AGENT” (Sana Biotechnology, Inc., priority 2020, published 2025):

Assays:
[1] = test system: control CAR-T cells expressing CAR-EGFRt constructs; assay: Innate killing by real-time cell analysis, control CAR-EGFRt T cells; type: cell-based, human; settings: with EGFR blocking antibody
Experimental: (§1) Briefly, T-cells were plated in CD19^+ tumor cell specific media. After cell index value reached 0.7, human NK cells or human macrophages were added with an E:T ratio of 1:1 with human IL-2 for NK cells and without IL-2 for macrophages. Some wells were pretreated with a human CD47 blocking antibody or a human EGFR antibody (e.g., cetuximab) and again during the course of the real-time analysis assay. Data were standardized and analyzed with the real-time cell analysis instrument software.
(§2) After about 48 hours, T-cells were collected and stained with components of a live/dead cell viability staining assay. Briefly, cells were stained with calcein AM and ethidium homodimer-1 according to the manufacturer's protocol. The analysis was performed by flow cytometry and the results were expressed as percentage of dead cells.

mock transfected T cells = assay: Innate killing by real-time cell analysis, mock transfected T cells; type: cell-based, human; settings: in the presence of the antibody
Experimental: as §1, §2

What does the source list for “cetuximab: human EGFR antibody (blocking antibody against EGFR) [reference compound]”?
innate cell killing of control CAR-EGFRt T cells [1]: induced; killing of mock transfected T cells by NK cell and macrophages (mock transfected T cells): not killed
